{"source": "patent US20240269123A1", "about": "“MUSCLE REGENERATION PROMOTER” (priority 2021, published 2024)", "origin": "cited, not measured here", "test_system": "histamine H3 receptor", "details": "statement taken from the literature; cited from earlier work", "data": [{"smiles": "N=C(N)SCCc1c[nH]cn1", "note": "[Compound 8, 2-(1H-imidazol-4-yl)ethyl carbamimidothioate]", "values": [{"measurement": "selectivity of agonist activity for the histamine H3 receptor over other histamine receptors", "value": "selective histamine H3 receptor agonist"}]}]}
